Tested on: exosome fraction B derived from human breast cancer cells (MDA-MB-231-luc-D3H2LN)
Experiment: Extraction of microRNA (miR-21) from exosomes derived from human breast cancer cells, real-time PCR
Assay type: biochemical
Conditions: 100 μM peptide, 1×10^11 particles/mL exosomes, 0.4 U/μL RNase inhibitor, 37° C., 24 hours; without peptide 8×10^−14M
Procedure: A cell suspension of cell line MDA-MB-231-luc-D3H2LN derived from human breast cancer (=MM231-luc-D3H2LN, provided by the National Cancer Center Research Institute) was seeded in a dish containing RPMI 1640 medium (manufactured by Thermo Fisher Scientific Inc.) containing 10% fetal bovine serum. Subsequently, the cell line was grown at 37° C. under the condition that CO2 concentration was set to 5 volume % using a CO2 incubator, and then the medium was replaced with Advanced RPMI 1640 medium (manufactured by Thermo Fisher Scientific Inc.), followed by culturing for 48 hours, and therefore the culture solution containing exosomes was obtained. This culture solution was centrifuged at 2,000 G for 10 minutes to remove the precipitate, followed by centrifugation at 110,000 G for 70 minutes to precipitate the exosomes, and therefore an exosome fraction B was recovered. […]
The reverse transcription PCR solution obtained by the above described method was processed and by comparing the number of cycles on a calibration curve of microRNA using Taqman Assay primer (manufactured by Thermo Fisher Scientific Inc., Taqman microRNA Assays, Taqman Assay primer, and hsa-mir-21 or hsa-mir-16) and Real-Time PCR Master Mixes (manufactured by Thermo Fisher Scientific Inc., TaqMan Universal PCR Master Mix II, w/UNG) with StepOnePlus Real-Time PCR System, MiR-21 or miR-16 was quantified. […]

How did the “Destructive activity (concentration of microRNA miR-21 in eluate)” value turn out when PNC-28 was run?
The value was “D (the concentration of microRNA is less than 10×10^−14M)”.

Source: US10071133B2, “Method for destroying exosomes, kit for destroying exosomes, and method for isolating exosomes derived from normal cells” (priority 2015, dated 2018)
